Experimental data from patent US20060062783A1 (Amgen, published 2006).

T1: Human PTH (1-34) (human, not fully specified)
T1 construct: Synthetic peptide bought from Bachem; also called hPTH (1-34); human 34mer
T1 peptide: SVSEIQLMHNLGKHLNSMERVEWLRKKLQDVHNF

T2: Human PTH (1-84) (human)
T2 construct: Synthetic peptide bought from Bachem; also called hPTH1-84; Hu 84mer
T2 peptide: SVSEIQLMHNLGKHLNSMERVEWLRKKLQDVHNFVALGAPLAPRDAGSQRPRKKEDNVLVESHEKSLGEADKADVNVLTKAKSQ

B1: anti-PTH mAb 086 (antibody, IgG2, V domains shown)
VH: EVQLVESGGGLVKPGGSLRLSCAASGFTFSNAWMSWVRQAPGKGLEWVGRIKSKTDGGTTDYAAPVKGRFTISRDDSKKTLYLQMNSLKTEDTAVYYCTTGATFDSWGQGTLVTVSS
VL: [about 120 residues not written out]
notes: also called AB-PTH-XG2-086; well 133D2
B2: mAb sc275 (antibody, IgG2, V domains shown)
VH: EVQLVESGGGLVKPGGSLRLSCAASGLTFSNAWMSWVRQAPGKGLEWVGRIKSKTDGGTTDYAAPVKGRFTISRDDSKNTLYLQMNSLKTEDTAVYYCTTYYFDSSGFPFDYWSQGTLVTVSS
VL: DIVMTQSPLSLPVTPGEPASISCRSSQSLLHSNGYKYLEWYLQKPGQSPQLLIYLGSNRASGVPDRFSGSGSGTDFTLKISRVEAEDVGVYYCMQTLQIPLTFGGGTKVEIK
B3: anti-PTH mAb 238 (antibody, IgG2, V domains shown)
VH: B2 VH with T55S
VL: B2 VL
notes: also called AB-PTH-XG2-238; well 264E5

Tests used:
[1] = target: T1, Human PTH (1-34); test: BiaCore, 37° C., 34mer
[2] = target: T1, Human PTH (1-34); test: BiaCore, 25° C., 34mer
[3] = target: PTH (antigen of the kinetic study of mAb sc275); test: biosensor kinetics, pH 7.4, 37 degree C., antibody held by Fc-specific capture, PTH injected, 1:1 model
Experimental: (§1) Each antigen concentration was injected in duplicate. Associations were monitored for one minute and dissociations were monitored for five minutes and ten minutes for the pH 7.4 and 6.0 assay, respectively. The surfaces were regenerated with a 12-second pulse of 50 mM H₃PO₄.
(§2) Finally, kinetic rate constants were determined by double referencing each data set to fit globally to a 1:1 interaction model.

[4] = target: PTH (antigen of the kinetic study of mAb sc275); test: biosensor kinetics, pH 7.4, 37 degree C., antibody immobilised by amine coupling, PTH injected, 1:1 model
Experimental: as §1, §2

[5] = target: T2, Human PTH (1-84); test: binning of recombinant antibodies (Table 10)
[6] = target: PTH (antigen of the kinetic study of mAb sc275); test: biosensor kinetics, pH 7.4, 37 degree C., antibody immobilised by aldehyde coupling, PTH injected, 1:1 model
Experimental: as §1, §2

[7] = target: T2, Human PTH (1-84); test: BiaCore, 37° C., 84mer

Binder | Kd [1] [nM] | Kd [2] [nM] | Kd [3] [nM] | koff [3] [s⁻¹] | kon [3] [M⁻¹ s⁻¹] | Kd [4] [nM] | koff [4] [s⁻¹] | kon [4] [M⁻¹ s⁻¹] | binding result [5] | Kd [6] [nM] | koff [6] [s⁻¹] | kon [6] [M⁻¹ s⁻¹] | Kd [7] [nM]
B1 | 16.7 | 4.7 | – | – | – | – | – | – | – | – | – | – | –
B2 | – | 0.2 | 1.9 | 0.00093 | 480000 | 2.5 | 0.00086 | 350000 | binds | 2 | 0.0012 | 610000 | –
B3 | 0.2 | 0.6 | – | – | – | – | – | – | – | – | – | – | 3.9

Positions count from the first letter of the chain named.
